Screening results: PubChem BioAssay, Broad Institute
Most compounds without a hit are left out; they make up all but 2.8% or so of the library.
PGC1a acetyl inh – inhibitors of PGC1a acetylation signal, primary screen, cell-based, U2OS, AlphaScreen, inhibitor mode; AlphaScreen anti-acetyl-lysine; with virally co-expressed GCN5 acetyltransferase; 350,000 tested, 0.17% active; inhibition, % at 15.6 µM; AID 651687, 2012;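 active = every replicate shows inhibition of at least 40%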;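 note: 0% = neutral control wells and 100% = positive control wells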
E-sel inducer – E-selectin induction in HUVECs, primary screen, imaging, HUVEC, immunofluorescence imaging, single point. normalized: neutral wells 0, TNF-alpha wells 100. 260,000 tested, 0.37% active. activation, % at 7.58 µM;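 active = mean E-selectin-positive cell signal at least 10% of the positive control, reached in at least 60% of replicates, without over 20% cell loss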
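Assay system: HUVEC, human umbilical vein endothelial cells / Amount: 3,000 HUVEC/well / Controls: TNF-alpha positive control, DMSO neutral control / Compound dosing: single concentration / Medium: EGM-2 over gelatin coat / Evaluation: percent E-selectin-positive cells / Signal: immunofluorescence imaging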
PglD DTNB – C. jejuni PglD acetyltransferase inhibitors, primary screen, biochemical, DTNB colorimetric, single point; inhibition, % at 12.5 µM; 360,000 tested, 0.098% active; UDP-N-acetylbacillosamine N-acetyltransferase PglD (Campylobacter jejuni); purified PglD enzyme, DTNB colorimetric CoA detection; in the data active = inhibition above about 16%, passing the limit was not always enough
esBAF inh – Bmi1 luciferase reporter increase in mESCs, primary screen, esBAF inhibitor project, mouse ES cells, Bmi1 luciferase knock-in, single point; 24 h; 100% = twice the neutral-well signal; reporter increase, % at 12.5 µM; 350,000 tested, 2% active; in the data active = activation above about 40%;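 note: 0% = median of the plate's neutral control wells and 100% = double that signal; a rise in the Bmi1 reporter signal indicates esBAF inhibition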
UUG fidelity – modulators of start codon recognition fidelity in yeast; AID 602363; activity score, % at 18.7 µM; S. cerevisiae UUG-firefly luciferase reporter, luminescence/redox ratio; 0.13% of 350,000 active;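 active = replicate mean at a twofold rise or more, about +100% in these data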;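 note: firefly luciferase made from a UUG start codon reports start codon fidelity; reporter light over untreated wells divided by growth signal over untreated wells; some hits fall short of that in this replicate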
C2C12 statin – suppressors of statin myotoxicity in C2C12 myotubes, primary screen, cell-based, single point, plate reader | C2C12 myotubes + simvastatin, ATP luminescence, 48 h; scaled: DMSO 0, geranylgeraniol control 100 | rescue of ATP level, % at 7.49 µM | 330,000 tested, 0.78% active | AID 602340, 2012;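 active = mean ATP rescue above about 67%, or every replicate alone reaching that limit, limit read from the data, passing the limit was not always enough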;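 note: myotubes were challenged with 10 µM simvastatin during compound exposure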
* = called active by the depositor; / = no result.

No.	mol	PGC1a acetyl inh	PglD DTNB	C2C12 statin	E-sel inducer	UUG fidelity	esBAF inh
1	O=C(C[C@H]1CC[C@H]2[C@@H](COC[C@@H](O)CN2C(=O)C2CCOCC2)O1)NCc1ccncc1	6	0	-17	0	-12	5
2	COc1ccccc1NC(=O)NC(=O)c1ccccc1	3	-3	3	0	-10	62*
3	CCC(=O)NC(=S)Nc1ccccc1OC	9	2	133*	/	-15	0
4	COc1ccccc1NC(=S)NC1CC2CCC1C2 (stereo not drawn)	-10	3	126*	1	-33	3
5	COC(=O)C(NC(=O)c1ccccc1)=C(C)C	5	6	94*	/	-16	1
6	CCOC(=O)C(NC(=O)c1ccccc1)=C(C)C	/	-1	0	/	-12	-7
7	Cc1ccc(S(=O)(=O)Nc2ccc3c(c2)C(=O)N([C@H](C)CO)C[C@H](C)[C@@H](CN(C)Cc2ccc(Cl)c(Cl)c2)OCCCC[C@H](C)O3)cc1	5	9	/	/	-3	-7
8	C[C@@H]1CCCCO[C@@H](CN(C)C(=O)Nc2ccc3c(c2)OCO3)[C@@H](C)CN([C@H](C)CO)C(=O)c2cc(NC(=O)Cc3ccccc3)ccc2O1	-8	3	/	0	-1	-11

Shown as a hit in esBAF inh (from the list above):
entry	smiles	PGC1a acetyl inh	PglD DTNB	UUG fidelity	esBAF inh
2	COc1ccccc1NC(=O)NC(=O)c1ccccc1	3	-3	-10	62*

(listing goes on)
No.	mol	PGC1a acetyl inh	PglD DTNB	C2C12 statin	E-sel inducer	UUG fidelity	esBAF inh
9	COc1ccccc1NC(=O)Nc1nnc(C(C)c2ccccc2)s1 (stereo not drawn)	-7	-3	19	/	-17	53*
10	Oc1ccccc1/C=N/NC(=S)NC1CC2CCC1C2 (stereo not drawn)	-2	0	1	1	-40	66*
11	Cc1noc(C)c1S(=O)(=O)Nc1cccc2c1O[C@H](CN(C)S(=O)(=O)c1c(C)noc1C)[C@H](C)CN([C@@H](C)CO)C2=O	-9	/	/	0	/	/
12	CN(C)/C=N/NC(=O)c1ccc(Cl)cc1	-8	6	/	/	3	/
13	CN(C)/C=N/c1cnc(C(=O)c2ccc(Cl)cc2)n1C	39	-1	-1	/	-20	45*
14	C/C(=N\NC(=O)c1cccs1)c1ccc2ccccc2c1	-2	-2	-46	0	-18	52*
15	Cc1cccc(Cn2c(N3CCN(C)CC3)nc3c2c(=O)[nH]c(=O)n3C)c1	12	0	4	/	-7	-4
16	Cc1cccc(Cn2c(N3CCCCC3C)nc3c2c(=O)[nH]c(=O)n3C)c1 (stereo not drawn)	-3	3	120*	0	-4	5
17	Cc1noc(C)c1NC(=O)N[C@H]1CC[C@H](CC(=O)Nc2ccccc2)O[C@@H]1CO	3	1	4	0	-12	-2
18	COc1ccccc1N(CC(=O)N1CCCCCC1)S(=O)(=O)c1ccc(C)cc1	3	7	91*	0	4	1
19	COc1ccccc1N(CC(=O)N1CCCC1)S(=O)(=O)c1ccc(C)cc1	/	0	-6	0	10	1
20	O=C(NCc1cccs1)c1ccncc1	1	-1	3	/	-98	-1
21	O=C(NCc1cccs1)c1ccc(N2CCCCC2)nc1	-7	-2	-53	/	-8	81*
22	CC1CCCN(c2ccc(C(=O)NCc3cccs3)cn2)C1 (stereo not drawn)	0	-7	-15	/	-6	94*
23	CC1CCCN(c2ccc(C(=O)NCc3ccccc3)cn2)C1 (stereo not drawn)	-19	-4	-18	17	-2	34
24	CC1CCN(c2ccc(C(=O)NCCc3ccccc3)cn2)CC1	5	-4	-10	/	-5	50*
25	O=C(Nc1ccccc1F)N[C@@H]1CC[C@@H](CCNC(=O)C2CCCC2)O[C@@H]1CO	-3	0	0	0	-3	1
26	COc1ccc(NC(=O)Nc2ccc3c(c2)CC(=O)N([C@H](C)CO)C[C@H](C)[C@H](CN(C)S(=O)(=O)c2ccc(Cl)cc2)O3)cc1	2	/	-147	-3	/	5
27	O=C(C[C@H]1CC[C@@H]2[C@H](COC[C@@H](O)CN2S(=O)(=O)c2cccc(F)c2)O1)Nc1ccccc1	-5	-3	-11	0	/	0
28	C[C@@H]1CCCCO[C@@H](CN(C)C(=O)c2ccncc2)[C@H](C)CN([C@H](C)CO)C(=O)c2cc(N(C)C)ccc2O1	1	-2	-35	0	-9	-1
29	COc1ccccc1CNC(=O)C[C@H]1CC[C@H]2[C@@H](COC[C@H](O)CN2C(=O)Nc2ccc(F)cc2)O1	1	-2	2	0	/	8
30	C[C@H]1CN([C@@H](C)CO)C(=O)Cc2cc(N(C)C)ccc2O[C@@H]1CN(C)C(=O)Nc1cccc2ccccc12	6	-3	9	-1	4	6
31	c1csc(CNc2ncnc3ccc(-c4ccoc4)cc23)c1	50*	1	2	/	-6	-15
32	Cc1noc(C)c1NC(=O)NCC[C@H]1CC[C@H](NC(=O)c2ccccc2)[C@@H](CO)O1	6	-1	-3	-1	-3	-1

From no. 30 as far as 32, copied from above:
No.	mol	PGC1a acetyl inh	PglD DTNB	C2C12 statin	E-sel inducer	UUG fidelity	esBAF inh
30	C[C@H]1CN([C@@H](C)CO)C(=O)Cc2cc(N(C)C)ccc2O[C@@H]1CN(C)C(=O)Nc1cccc2ccccc12	6	-3	9	-1	4	6
31	c1csc(CNc2ncnc3ccc(-c4ccoc4)cc23)c1	50*	1	2	/	-6	-15
32	Cc1noc(C)c1NC(=O)NCC[C@H]1CC[C@H](NC(=O)c2ccccc2)[C@@H](CO)O1	6	-1	-3	-1	-3	-1

Next section:
No.	mol	PGC1a acetyl inh	PglD DTNB	C2C12 statin	E-sel inducer	UUG fidelity	esBAF inh
33	O=C1CCC[C@@H]2Cc3nc4cc5c(cc4cc3[C@@H]3CCN1[C@H]23)OCO5	2	-4	80*	0	-15	37
34	O=C(CSc1nnc(-c2ccccc2)n1C1CCCCC1)Nc1ccc(S(=O)(=O)Nc2ccccn2)cc1	11	0	-58	/	-17	-1
35	CCn1c(SCC(=O)Nc2ccc(S(=O)(=O)Nc3ccccn3)cc2)nnc1-c1ccncc1	12	-6	95*	/	-14	-10
36	O=C(C[C@@H]1C=C[C@H](NC(=O)c2cccc(F)c2)[C@@H](CO)O1)NCc1ccc(Oc2ccccc2)cc1	3	4	3	0	-15	-1
37	CCOc1cc(NC(=O)C2CC2)c(OCC)cc1NC(=O)c1ccccn1	-9	-7	121*	/	-3	-6
38	C[C@@H]1CN([C@@H](C)CO)C(=O)Cc2cc(NS(=O)(=O)c3ccc(F)cc3)ccc2O[C@H]1CN(C)S(=O)(=O)c1ccccc1	-7	0	19	0	0	2
39	CCCCN(Cc1ccccc1)c1ncnc2nc[nH]c12	0	2	26	/	9	67*
40	CC(=O)c1cccc(NC(=O)c2ccc(-c3ccccc3[N+](=O)[O-])o2)c1	2	2	4	0	-4	103*
41	Cc1cc(NC(=O)c2ccc(-c3ccccc3[N+](=O)[O-])o2)no1	-7	7	0	/	-8	57*
42	O=C(/C=C/c1ccccc1)NCCc1ccccc1	0	0	8	/	-1	89*
43	Cc1cc(C)c(C(=O)CSc2nnc(N)s2)cc1C	8	8	/	0	-12	/
44	Cc1ccc(C(=O)CSc2nnc(N)s2)c(C)c1	/	-7	-2	-1	6	61*
